The record followed here is ChEMBL document CHEMBL1781871, “Discovery and SAR of novel mGluR5 non-competitive antagonists not based on an MPEP chemotype” (Bioorg Med Chem Lett, 2009).

Sequences of proteins named here, by UniProt entry; tags and fusion partners are left off.
UniProt P41594, whole entry: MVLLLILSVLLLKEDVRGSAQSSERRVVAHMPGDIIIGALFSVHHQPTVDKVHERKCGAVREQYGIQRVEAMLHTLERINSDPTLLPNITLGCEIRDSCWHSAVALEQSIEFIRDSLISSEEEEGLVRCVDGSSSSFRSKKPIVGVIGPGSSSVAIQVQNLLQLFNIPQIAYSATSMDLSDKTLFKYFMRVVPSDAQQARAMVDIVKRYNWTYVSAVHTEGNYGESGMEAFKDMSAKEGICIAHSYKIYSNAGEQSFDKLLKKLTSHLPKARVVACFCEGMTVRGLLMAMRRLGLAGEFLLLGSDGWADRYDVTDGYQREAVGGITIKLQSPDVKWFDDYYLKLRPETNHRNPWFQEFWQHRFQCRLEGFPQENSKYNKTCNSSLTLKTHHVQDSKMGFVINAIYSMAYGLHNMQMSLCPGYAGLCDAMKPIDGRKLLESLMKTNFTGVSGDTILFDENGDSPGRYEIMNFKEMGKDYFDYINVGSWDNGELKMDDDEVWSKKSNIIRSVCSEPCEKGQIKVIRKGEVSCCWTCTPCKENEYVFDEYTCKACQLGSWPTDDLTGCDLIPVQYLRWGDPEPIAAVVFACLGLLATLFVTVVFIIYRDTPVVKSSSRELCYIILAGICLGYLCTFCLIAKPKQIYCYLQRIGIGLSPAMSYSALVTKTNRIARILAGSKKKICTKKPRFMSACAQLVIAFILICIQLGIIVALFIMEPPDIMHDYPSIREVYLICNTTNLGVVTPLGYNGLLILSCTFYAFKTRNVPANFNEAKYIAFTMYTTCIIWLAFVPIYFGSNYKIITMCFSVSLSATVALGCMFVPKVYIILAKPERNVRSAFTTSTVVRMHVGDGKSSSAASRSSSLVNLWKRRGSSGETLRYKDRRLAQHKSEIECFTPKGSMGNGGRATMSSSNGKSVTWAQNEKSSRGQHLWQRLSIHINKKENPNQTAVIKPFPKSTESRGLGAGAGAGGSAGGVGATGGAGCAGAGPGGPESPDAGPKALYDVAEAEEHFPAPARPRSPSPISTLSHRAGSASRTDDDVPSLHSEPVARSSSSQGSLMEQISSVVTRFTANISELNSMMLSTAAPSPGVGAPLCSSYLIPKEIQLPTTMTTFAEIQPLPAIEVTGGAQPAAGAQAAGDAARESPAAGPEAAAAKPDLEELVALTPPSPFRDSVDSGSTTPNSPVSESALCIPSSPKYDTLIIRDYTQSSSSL

Each structure is given as a SMILES string. pIC50, pKi: −log10 of the molar value.

The target of experiment [1] is T1, Metabotropic glutamate receptor 5 (Homo sapiens, UniProt P41594). The experiment can be described thus: Non-competitive antagonist activity at mGluR5. Format: functional.
Experiment [2] addresses T1, Metabotropic glutamate receptor 5. Description: Displacement of [3H]3-methoxy-5-(2-pyridinylethynyl) pyridine from mGluR5 allosteric site. In general terms: Loss of bound radioactivity is the signal in a displacement assay; it reports binding, not function.

By pIC50 is commonly meant −log10 of the IC50, conventionally taken in molar units. A low value points to a high IC50. Molecule `N#Cc1ccccc1N1CCN(C(=O)C23CC4CC(CC(C4)C2)C3)CC1` gave a pIC50 in experiment [1] of 5.63.
What is called pKi is −log10 of the Ki, conventionally taken in molar units. Read a high pKi as a small Ki. As for `Cc1cc(C)c2c(N)c(C(=O)c3ccc(F)cc3)oc2n1`, in experiment [2], the pKi is 6.39.
Molecule `O=C(C1CCC1)N1CCCC2(CCCCC2)C1` gave a pIC50 in experiment [1] of 6.09. In experiment [2], this molecule gave a pKi of 6.08.
In the same order, the values of `O=C(N1CCN(c2nccs2)CC1)C12CC3CC(CC(C3)C1)C2` are 6.27 and 6.36.
Consider `O=C(CSc1ccccc1)N1CCCC2(CCCCC2)C1`, for which the pIC50 in experiment [1] is 5.28.
